These are literature values, as cited in patent publication US20140234345A1, “NOVEL ANTI-CANCER ISOCARBOSTYRIL ALKALOID CONJUGATES” (priority 2011, published 2014).

For the series the following is noted: 9 consecutive days given intravenously; cited from earlier work.

In the case of “d-alpha-tocopheryl polyethylene glycol 1000 succinate [Vitamin E]”, the “dose well tolerated in humans” value is reported as “up to 2.3 g m^−2”.
